The text below walks through data of patent publication US9447148B2, “Melanocortin-1 receptor-specific cyclic peptides” (Palatin Technologies, Inc., priority 2009, dated 2016).

By UniProt entry, the sequences of proteins in these tests, tags left out. Where a name states a change or a piece, a line headed by the entry shows the natural chain unless it says otherwise.
UniProt Q01726: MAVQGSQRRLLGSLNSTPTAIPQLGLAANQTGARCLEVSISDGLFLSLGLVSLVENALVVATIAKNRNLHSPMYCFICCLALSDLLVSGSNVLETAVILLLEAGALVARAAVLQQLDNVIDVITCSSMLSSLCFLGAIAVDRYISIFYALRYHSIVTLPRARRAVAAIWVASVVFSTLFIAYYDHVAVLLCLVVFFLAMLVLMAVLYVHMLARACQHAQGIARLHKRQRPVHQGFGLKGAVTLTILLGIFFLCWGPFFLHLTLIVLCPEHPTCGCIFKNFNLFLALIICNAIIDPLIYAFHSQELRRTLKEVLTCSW

One assay addresses hMCR-1 (Homo sapiens (Human), UniProt Q01726). The experiment in a line: Assay for agonist activity: intracellular cAMP accumulation in HBL human melanoma cells. The assay is classed as cell-based. Particulars: HBL cells expressing hMCR-1, averaged, read-out: MC-1 EC50 (average; cAMP HBL). The protocol: Confluent HBL cells that express hMCR-1 or HEK-293 cells that express recombinant hMCR-4 were detached from culture plates by incubation in enzyme-free cell dissociation buffer. Dispersed cells were suspended in Earle's Balanced Salt Solution containing 10 mM HEPES (pH 7.5), 1 mM MgCl2, 1 mM glutamine, 0.5% albumin and 0.3 mM 3-isobutyl-1-methyl-xanthine (IBMX), a phosphodiesterase inhibitor. The cells were plated in 96-well plates at a density of 0.4×10^5 cells per well for HBL cells and 0.5×10^5 cells per well for HEK-293 cells and pre-incubated for 10 minutes. Cells were exposed for 15 minutes at 37° C. to peptides of the present invention dissolved in DMSO (final DMSO concentration of 1%) at a concentration range of 0.05-5000 nM in a total assay volume of 200 μL. […] Data analysis was performed by nonlinear regression analysis with Graph-Pad Prism® software.
(§1) Peptides of the following structures were synthesized and averaged MCR-1 and MCR-4 Ki values were determined as indicated. […] All results are expressed in nM except for Emax values, which are percentage values. Peptides with the captioned primary sequence were synthesized and purified as described in Section 5 above, with the resulting peptide having the structure depicted.
A general note: Changes in cAMP serve as a functional read-out for many G protein-coupled receptors.

For a further assay, the target named is hMCR-1a (Homo sapiens (Human), UniProt Q01726). The experiment in a line: Competitive inhibition binding assay using [I125]-NDP-α-MSH, hMCR-1a. Particulars: membrane homogenates of HEK-293 cells, human recombinant receptor, averaged, read-out: MC-1 Ki (average). Here is the method: A competitive inhibition binding assay was performed using membrane homogenates prepared from HEK-293 cells that express recombinant hMCR-1a or hMCR-4 (in each instance where the h prefix refers to human), or alternatively membrane homogenates from B16-F10 mouse melanoma cells containing endogenous murine MCR-1. In the examples that follow, all MCR-1 and MCR-4 values are for human recombinant receptors, unless otherwise noted. Assays were performed in 96 well polypropylene round-bottom plates (VWR catalog number 12777-030). […] After incubation for 90 minutes at 37° C., the assay mixture was filtered onto GF/B Unifilter plates (Perkin-Elmer catalog number 6005177) and washed with 3 mL of ice-cold buffer per well. Filters were air dried and 35 μL of scintillation cocktail added to each well. Plates were counted in a Microbeta counter for bound radioactivity. […] Each assay was conducted in duplicate and the actual mean values are described, with results less than 0% reported as 0%. Ki values for peptides of the present invention were determined using Graph-Pad Prism® curve-fitting software.
as §1

SMILES strings stand for the structures.

For orientation: EC50 means the concentration needed to bring the measured effect to its halfway point. Broadly, the Ki is a measure of affinity in units of concentration, obtained from inhibition or displacement. For the compound `CCCC[C@H](NC(C)=O)C(=O)N[C@H]1CCC(=O)NCC[C@@H](C(=O)N[C@H](Cc2cccc3ccccc23)C(N)=O)NC(=O)[C@H](CCCNC(=N)N)NC(=O)[C@@H](Cc2ccccc2)NC(=O)[C@H](Cc2c[nH]cn2)NC1=O` [Example 9.9, Ac-Nle-cyclo(Glu-His-D-Phe-Arg-Dab)-D-Nal 1-NH2], the EC50 on hMCR-1 came out at 8 pM. Moreover, the Ki at hMCR-1a worked out at 100 pM.
For `CCCC[C@H](NC(C)=O)C(=O)N[C@H]1CCC(=O)NCC[C@@H](C(=O)N[C@@H](Cc2ccc3ccccc3c2)C(N)=O)NC(=O)[C@H](CCCNC(=N)N)NC(=O)[C@@H](Cc2ccccc2)NC(=O)[C@H](Cc2c[nH]cn2)NC1=O` [Example 9.10, Ac-Nle-cyclo(Glu-His-D-Phe-Arg-Dab)-Nal 2-NH2], the EC50 at hMCR-1 came to 4 pM. Moreover, the Ki on hMCR-1a was found to be 10 pM.
For `CCCC[C@H](NC(C)=O)C(=O)N[C@H]1CCC(=O)NCC[C@@H](C(=O)N[C@H](Cc2ccc3ccccc3c2)C(N)=O)NC(=O)[C@H](CCCNC(=N)N)NC(=O)[C@@H](Cc2ccccc2)NC(=O)[C@H](Cc2c[nH]cn2)NC1=O` [Example 9.11, Ac-Nle-cyclo(Glu-His-D-Phe-Arg-Dab)-D-Nal 2-NH2], the half-maximal effective concentration (EC50) on hMCR-1 was determined as 5 pM. Further, the Ki at hMCR-1a worked out at 20 pM.
With `CC(=O)N[C@H](Cc1ccccc1)C(=O)N[C@H]1CCC(=O)NCC[C@@H](C(=O)N[C@@H](Cc2c[nH]c3ccccc23)C(N)=O)NC(=O)[C@H](CCCNC(=N)N)NC(=O)[C@@H](Cc2ccccc2)NC(=O)[C@H](Cc2c[nH]cn2)NC1=O` [Example 9.12, Ac-D-Phe-cyclo(Glu-His-D-Phe-Arg-Dab)-Trp-NH2], the EC50 on hMCR-1 is 15 pM.
Take `CC(=O)N[C@@H](Cc1ccccc1)C(=O)N[C@H]1CCC(=O)NCC[C@@H](C(=O)N[C@@H](Cc2c[nH]c3ccccc23)C(N)=O)NC(=O)[C@H](CCCNC(=N)N)NC(=O)[C@@H](Cc2ccccc2)NC(=O)[C@H](Cc2c[nH]cn2)NC1=O` [Example 9.13, Ac-Phe-cyclo(Glu-His-D-Phe-Arg-Dab)-Trp-NH2]: the concentration for a half-maximal effect (EC50) on hMCR-1 came to 10 pM.
Regarding `CCCCC(=O)N[C@H]1CCC(=O)NCC[C@@H](C(=O)N[C@@H](Cc2c[nH]c3ccccc23)C(N)=O)NC(=O)[C@H](CCCNC(=N)N)NC(=O)[C@@H](Cc2ccccc2)NC(=O)[C@H](Cc2c[nH]cn2)NC1=O` [Example 9.16, CH3—(CH2)3—C(═O)-cyclo(Glu-His-D-Phe-Arg-Dab)-Trp-NH2], the EC50 on hMCR-1 was 5 pM.
With `CCCCCCC(=O)N[C@H]1CCC(=O)NCC[C@@H](C(=O)N[C@@H](Cc2c[nH]c3ccccc23)C(N)=O)NC(=O)[C@H](CCCNC(=N)N)NC(=O)[C@@H](Cc2ccccc2)NC(=O)[C@H](Cc2c[nH]cn2)NC1=O` [Example 9.18, CH3—(CH2)5—C(═O)-cyclo(Glu-His-D-Phe-Arg-Dab)-Trp-NH2], the EC50 on hMCR-1 came out at 3 pM.
Take `CCCC[C@H](NC(C)=O)C(=O)N[C@H]1CCNC(=O)CCC(=O)NC[C@@H](C(=O)N[C@@H](Cc2c[nH]c3ccccc23)C(N)=O)NC(=O)[C@H](CCCNC(=N)N)NC(=O)[C@@H](Cc2ccccc2)NC(=O)[C@H](Cc2c[nH]cn2)NC1=O` [Example 9.29]: the EC50 at hMCR-1 was found to be 6 pM.
Take `CCCC[C@H](NC(C)=O)C(=O)N[C@H]1CCC(=O)NCC[C@@H](C(=O)N[C@@H](Cc2cccc3ccccc23)C(N)=O)NC(=O)[C@H](CCCNC(=N)N)NC(=O)[C@@H](Cc2ccccc2)NC(=O)[C@H](Cc2c[nH]cn2)NC1=O` [Example 9.30, Ac-Nle-cyclo(Glu-His-D-Phe-Arg-Dab)-Nal 1-NH2]: the EC50 on hMCR-1 was determined as 2 pM. Besides, the Ki at hMCR-1a was determined as 5 pM.
